Experimental data from PubChem BioAssay (NCI).
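Method: 48-hour compound exposure of cells in 96-well plates, five concentrations, linear interpolation of endpoints. GI50 marks 50% less growth. Definition used: TGI = concentration required for complete inhibition of growth.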

What was measured:
Experiment in all cases: NCI anticancer screen, dose series, 48 h
NCI-H460 lung = test system: NCI-H460 lung
ACHN renal = test system: ACHN renal
MCF7 breast = test system: MCF7 breast
NCI/ADR-RES ovarian = test system: NCI/ADR-RES ovarian
RXF 393 renal = test system: RXF 393 renal
SK-OV-3 ovarian = test system: SK-OV-3 ovarian
SF-539 CNS = test system: SF-539 CNS
SK-MEL-28 melanoma = test system: SK-MEL-28 melanoma
HCT-116 colon = test system: HCT-116 colon
DU-145 prostate = test system: DU-145 prostate
MALME-3M melanoma = test system: MALME-3M melanoma
SF-268 CNS = test system: SF-268 CNS
MDA-MB-435 = test system: MDA-MB-435
TK-10 renal = test system: TK-10 renal
HOP-92 NSCLC = test system: HOP-92 NSCLC
K-562 leukemia = test system: K-562 leukemia
U251 CNS = test system: U251 CNS
SN12C renal = test system: SN12C renal
CAKI-1 renal = test system: CAKI-1 renal
MOLT-4 leukemia = test system: MOLT-4 leukemia
A498 renal = test system: A498 renal
OVCAR-8 ovarian = test system: OVCAR-8 ovarian
KM12 colon = test system: KM12 colon
BT-549 breast = test system: BT-549 breast
T-47D breast = test system: T-47D breast
NCI-H226 lung = test system: NCI-H226 lung
SF-295 CNS = test system: SF-295 CNS
M14 melanoma = test system: M14 melanoma
IGROV1 ovarian = test system: IGROV1 ovarian
SK-MEL-2 melanoma = test system: SK-MEL-2 melanoma
NCI-H322M lung = test system: NCI-H322M lung
UO-31 renal = test system: UO-31 renal
UACC-257 melanoma = test system: UACC-257 melanoma
HS 578T breast = test system: HS 578T breast
SK-MEL-5 melanoma = test system: SK-MEL-5 melanoma
NCI-H522 lung = test system: NCI-H522 lung
SW-620 colon = test system: SW-620 colon
EKVX NSCLC = test system: EKVX NSCLC
CCRF-CEM leukemia = test system: CCRF-CEM leukemia
LOX IMVI melanoma = test system: LOX IMVI melanoma
OVCAR-3 ovarian = test system: OVCAR-3 ovarian
HL-60(TB) leukemia = test system: HL-60(TB) leukemia
UACC-62 melanoma = test system: UACC-62 melanoma
SNB-19 CNS = test system: SNB-19 CNS
HT29 colon = test system: HT29 colon
786-0 renal = test system: 786-0 renal
HOP-62 NSCLC = test system: HOP-62 NSCLC
HCT-15 colon = test system: HCT-15 colon
MDA-MB-231 breast = test system: MDA-MB-231 breast
SNB-75 CNS = test system: SNB-75 CNS
RPMI-8226 leukemia = test system: RPMI-8226 leukemia
PC-3 prostate = test system: PC-3 prostate
OVCAR-5 ovarian = test system: OVCAR-5 ovarian
NCI-H23 lung = test system: NCI-H23 lung
HCC-2998 colon = test system: HCC-2998 colon
COLO 205 colon = test system: COLO 205 colon
A549 NSCLC = test system: A549 NSCLC
OVCAR-4 ovarian = test system: OVCAR-4 ovarian

O=[N+]([O-])c1ccc(Nc2ccc(Oc3ccc([N+](=O)[O-])cc3[N+](=O)[O-])cc2)c([N+](=O)[O-])c1
GI50 (NCI-H460 lung): 40.5 µM
TGI (NCI-H460 lung): > 100 µM
GI50 (ACHN renal): 16 µM
TGI (ACHN renal): 95.1 µM
GI50 (MCF7 breast): 23 µM
TGI (MCF7 breast): > 100 µM
GI50 (NCI/ADR-RES ovarian): 15.3 µM
TGI (NCI/ADR-RES ovarian): > 100 µM
GI50 (RXF 393 renal): 6.89 µM
TGI (RXF 393 renal): 30 µM
GI50 (SK-OV-3 ovarian): 12.6 µM
TGI (SK-OV-3 ovarian): 41.6 µM
GI50 (SF-539 CNS): 14.8 µM
TGI (SF-539 CNS): 37.4 µM
GI50 (SK-MEL-28 melanoma): 19.1 µM
TGI (SK-MEL-28 melanoma): 57.8 µM
GI50 (HCT-116 colon): 28.1 µM
TGI (HCT-116 colon): > 100 µM
GI50 (DU-145 prostate): 16.8 µM
TGI (DU-145 prostate): 48.7 µM
GI50 (MALME-3M melanoma): 15 µM
TGI (MALME-3M melanoma): 56.5 µM
GI50 (SF-268 CNS): 13.2 µM
TGI (SF-268 CNS): 37.9 µM
GI50 (MDA-MB-435): 10.8 µM
TGI (MDA-MB-435): > 100 µM
GI50 (TK-10 renal): 17.8 µM
TGI (TK-10 renal): 42.2 µM
GI50 (HOP-92 NSCLC): 10.7 µM
TGI (HOP-92 NSCLC): 32.4 µM
GI50 (K-562 leukemia): 5.52 µM
TGI (K-562 leukemia): > 100 µM
GI50 (U251 CNS): 24.3 µM
TGI (U251 CNS): > 100 µM
GI50 (SN12C renal): 22.9 µM
TGI (SN12C renal): > 100 µM
GI50 (CAKI-1 renal): 24 µM
TGI (CAKI-1 renal): > 100 µM
GI50 (MOLT-4 leukemia): > 100 µM
TGI (MOLT-4 leukemia): > 100 µM
GI50 (A498 renal): 16 µM
TGI (A498 renal): 58.8 µM
GI50 (OVCAR-8 ovarian): 16.2 µM
TGI (OVCAR-8 ovarian): 88.9 µM
GI50 (KM12 colon): 18.9 µM
TGI (KM12 colon): > 100 µM
GI50 (BT-549 breast): 18.5 µM
TGI (BT-549 breast): 82.4 µM
GI50 (T-47D breast): 17.2 µM
TGI (T-47D breast): > 100 µM
GI50 (NCI-H226 lung): 17 µM
TGI (NCI-H226 lung): 49.5 µM
GI50 (SF-295 CNS): 16.3 µM
TGI (SF-295 CNS): 42.8 µM
GI50 (M14 melanoma): 35.1 µM
TGI (M14 melanoma): > 100 µM
GI50 (IGROV1 ovarian): 21 µM
TGI (IGROV1 ovarian): > 100 µM
GI50 (SK-MEL-2 melanoma): 15.2 µM
TGI (SK-MEL-2 melanoma): 47.2 µM
GI50 (NCI-H322M lung): 30.2 µM
TGI (NCI-H322M lung): > 100 µM
GI50 (UO-31 renal): 3.57 µM
TGI (UO-31 renal): 57.3 µM
GI50 (UACC-257 melanoma): 21.5 µM
TGI (UACC-257 melanoma): > 100 µM
GI50 (HS 578T breast): 9.91 µM
TGI (HS 578T breast): 40.9 µM
GI50 (SK-MEL-5 melanoma): 21.6 µM
TGI (SK-MEL-5 melanoma): > 100 µM
GI50 (NCI-H522 lung): 12.4 µM
TGI (NCI-H522 lung): > 100 µM
GI50 (SW-620 colon): 18.1 µM
TGI (SW-620 colon): > 100 µM
GI50 (EKVX NSCLC): 30.5 µM
TGI (EKVX NSCLC): > 100 µM
GI50 (CCRF-CEM leukemia): > 100 µM
TGI (CCRF-CEM leukemia): > 100 µM
GI50 (LOX IMVI melanoma): 20.3 µM
TGI (LOX IMVI melanoma): > 100 µM
GI50 (OVCAR-3 ovarian): 15.9 µM
TGI (OVCAR-3 ovarian): 37.4 µM
GI50 (HL-60(TB) leukemia): > 100 µM
TGI (HL-60(TB) leukemia): > 100 µM
GI50 (UACC-62 melanoma): 13 µM
TGI (UACC-62 melanoma): 37.9 µM
GI50 (SNB-19 CNS): 24 µM
TGI (SNB-19 CNS): 91.5 µM
GI50 (HT29 colon): 82.1 µM
TGI (HT29 colon): > 100 µM
GI50 (786-0 renal): 35.4 µM
TGI (786-0 renal): > 100 µM
GI50 (HOP-62 NSCLC): 13.6 µM
TGI (HOP-62 NSCLC): 31.9 µM
GI50 (HCT-15 colon): 61.3 µM
TGI (HCT-15 colon): > 100 µM
GI50 (MDA-MB-231 breast): 16.1 µM
TGI (MDA-MB-231 breast): 65.7 µM
GI50 (SNB-75 CNS): 11.7 µM
TGI (SNB-75 CNS): 33.4 µM
GI50 (RPMI-8226 leukemia): 7.6 µM
TGI (RPMI-8226 leukemia): > 100 µM
GI50 (PC-3 prostate): 13.2 µM
TGI (PC-3 prostate): 37.8 µM
GI50 (OVCAR-5 ovarian): 49.5 µM
TGI (OVCAR-5 ovarian): > 100 µM
GI50 (NCI-H23 lung): 20.3 µM
TGI (NCI-H23 lung): > 100 µM
GI50 (HCC-2998 colon): 53.8 µM
TGI (HCC-2998 colon): > 100 µM
GI50 (COLO 205 colon): 63.8 µM
TGI (COLO 205 colon): > 100 µM
GI50 (A549 NSCLC): 24 µM
TGI (A549 NSCLC): > 100 µM
GI50 (OVCAR-4 ovarian): 10.6 µM
TGI (OVCAR-4 ovarian): 30.7 µM
